Test results as given in paper PMC6071920 (MedChemComm, 2016).

Protein sequences, listed by entry. Tags and fused reporters are not part of them.
UniProt P30536, whole entry, stated change not applied: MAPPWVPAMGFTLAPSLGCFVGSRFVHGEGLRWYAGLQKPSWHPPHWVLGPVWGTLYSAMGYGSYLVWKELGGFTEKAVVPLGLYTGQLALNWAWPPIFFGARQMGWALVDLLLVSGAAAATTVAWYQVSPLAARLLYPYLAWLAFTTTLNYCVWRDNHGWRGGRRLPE

Molecular target: TSPO A147T (Homo sapiens, UniProt P30536)
Settings: read-out: Kd at TSPO A147T; saturation binding, membranes from 293T cells over-expressing TSPO A147T

Kd: 0.0134 ± 0.0022 µM
SMILES: CCC(C)N(C)C(=O)c1cc2ccccc2c(-c2ccccc2Cl)n1 (stereo not shown) [[^3H]-PK 11195]
